Structures can show the parent of a compound that is named as a salt.
Test system: NCI-H526 cells
Experiment: In vitro cell inhibition assay - NCI-H526 cell proliferation (CellTiter-Glo)
Format: cell-based
Details: Homo sapiens, NCI-H526, 120 h, H526 small cell lung cancer cell proliferation, 5 days
Experimental: 6. In Vitro Cell Inhibition Assay—NCI-H526 Cell Proliferation
The inhibitory effect of the compounds on cell proliferation was assessed by detecting the number of viable cells using CellTiter-Glo® reagent. NCI-H526 cells in the logarithmic growth phase were collected and inoculated into transparent bottom 96-well plates at a density 1×10^3 cells per well with 100 μL of medium, and incubated at 37° C., 5% CO2 overnight. The compounds were sequentially diluted in a 5-fold concentration gradient with DMSO to obtain 8 different concentrations. These were then diluted with RPMI-640 (containing 10% FBS) cell culture medium to obtain the compound working solution (2×), which was added to the cell supernatant at 100 μL per well. The incubation continued for 5 days at 37° C., 5% CO2. The plate was then removed and equilibrated at room temperature (25° C.) along with the CellTiter-Glo® mixing reagent for 10-30 minutes; 80 μL of the culture medium was carefully aspirated from each well, and 80 μL of CellTiter-Glo® reagent was added. […] The 96-well plate was subsequently placed on a multifunctional microplate reader to record the Luminescence values (RLU).
The inhibition rate was calculated using the following formula: […]
The IC50 value was determined by fitting the inhibition rate by GraphPad Prism software.

IC50: 14.2 nM
Structure (SMILES): N#Cc1ccc(-c2c(-c3ccc(F)c(O)c3)cnc(N3CCC(NCc4ccc(/C=C/C(=O)NO)cc4)CC3)c2C#N)cc1F [Example 97, (E)-3-(4-((1-(3-Cyano-4-(4-cyano-3-fluorophenyl)-5-(4-fluoro-3-hydroxyphenyl)pyridin-2-yl)piperidin-4-yl)amino)methyl) phenyl)-N-hydroxyacrylamide formate]
